Results: US7951832B2, “Pyrazole derivatives as kinase inhibitors” (Burnham Institute for Medical Research, priority 2007, dated 2011)

Amino acid sequences for entries named in this document (tags omitted).
UniProt P42336, whole entry: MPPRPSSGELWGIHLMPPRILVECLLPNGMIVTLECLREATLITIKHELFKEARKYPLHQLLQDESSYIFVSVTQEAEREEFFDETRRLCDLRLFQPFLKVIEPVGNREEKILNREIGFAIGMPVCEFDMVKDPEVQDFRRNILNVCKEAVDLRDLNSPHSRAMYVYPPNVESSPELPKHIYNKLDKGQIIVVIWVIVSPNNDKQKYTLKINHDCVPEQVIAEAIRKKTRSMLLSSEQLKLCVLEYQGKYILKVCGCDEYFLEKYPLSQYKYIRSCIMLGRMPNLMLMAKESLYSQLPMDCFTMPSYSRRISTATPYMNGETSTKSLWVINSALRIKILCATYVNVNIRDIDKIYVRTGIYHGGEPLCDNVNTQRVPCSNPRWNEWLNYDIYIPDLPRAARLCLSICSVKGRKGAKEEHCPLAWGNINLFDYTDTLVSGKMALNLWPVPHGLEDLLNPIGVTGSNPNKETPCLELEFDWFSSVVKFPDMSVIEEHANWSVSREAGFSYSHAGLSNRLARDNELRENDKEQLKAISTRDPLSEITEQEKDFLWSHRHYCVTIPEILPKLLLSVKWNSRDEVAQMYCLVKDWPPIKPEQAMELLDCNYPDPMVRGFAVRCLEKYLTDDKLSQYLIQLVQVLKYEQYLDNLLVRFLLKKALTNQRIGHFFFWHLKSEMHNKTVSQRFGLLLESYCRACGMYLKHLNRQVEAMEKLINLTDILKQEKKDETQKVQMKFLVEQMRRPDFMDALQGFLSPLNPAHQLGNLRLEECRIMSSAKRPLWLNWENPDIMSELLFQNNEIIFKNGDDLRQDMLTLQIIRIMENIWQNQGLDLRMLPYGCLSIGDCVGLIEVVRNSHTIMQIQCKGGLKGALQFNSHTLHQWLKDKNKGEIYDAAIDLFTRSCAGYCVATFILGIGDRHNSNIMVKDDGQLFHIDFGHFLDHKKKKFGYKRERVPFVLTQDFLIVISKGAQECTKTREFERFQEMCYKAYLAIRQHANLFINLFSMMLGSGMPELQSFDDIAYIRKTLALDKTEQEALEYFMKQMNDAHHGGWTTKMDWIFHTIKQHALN

Biological target: PI3 K P110α (Homo sapiens, UniProt P42336)
Test: Inhibition of PI3K (P110α)
Type: biochemical
Conditions: values printed without % sign, read as IC50, read-out: PI3 K (% at 25 μM, or IC50), P110α

IC50: 0.075 µM
SMILES: C(#Cc1n[nH]c2ccccc12)c1cccnc1
